The chains behind the UniProt entries cited, without tags or fusion partners.
UniProt P33533, whole entry, looked up: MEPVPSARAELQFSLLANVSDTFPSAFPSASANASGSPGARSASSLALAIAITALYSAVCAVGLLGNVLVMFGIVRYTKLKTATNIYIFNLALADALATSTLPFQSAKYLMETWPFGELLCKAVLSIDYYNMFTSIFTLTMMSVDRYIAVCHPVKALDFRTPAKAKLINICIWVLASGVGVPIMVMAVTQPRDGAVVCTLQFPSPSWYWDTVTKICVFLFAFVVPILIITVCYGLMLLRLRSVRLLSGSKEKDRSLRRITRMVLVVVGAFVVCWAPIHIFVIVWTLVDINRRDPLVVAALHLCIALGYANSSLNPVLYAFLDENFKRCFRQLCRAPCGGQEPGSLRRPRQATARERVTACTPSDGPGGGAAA
UniProt P33535, whole entry, looked up: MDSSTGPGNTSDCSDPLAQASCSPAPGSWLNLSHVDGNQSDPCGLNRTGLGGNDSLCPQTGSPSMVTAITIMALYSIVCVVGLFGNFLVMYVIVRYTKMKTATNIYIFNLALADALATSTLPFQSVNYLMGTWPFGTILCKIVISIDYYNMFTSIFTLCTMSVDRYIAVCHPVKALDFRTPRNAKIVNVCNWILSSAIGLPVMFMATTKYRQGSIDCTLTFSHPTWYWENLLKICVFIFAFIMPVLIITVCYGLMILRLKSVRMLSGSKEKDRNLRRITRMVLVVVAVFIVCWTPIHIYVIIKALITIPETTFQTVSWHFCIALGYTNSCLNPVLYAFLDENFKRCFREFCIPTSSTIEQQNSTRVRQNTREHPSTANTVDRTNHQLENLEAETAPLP

In ChEMBL document CHEMBL1149096 (J Med Chem, 2004):

Tests used:
Cavia porcellus = species: Cavia porcellus; assay: Selectivity given as ratio of kappa receptor to delta receptor
[1] = biological target: Opioid receptors; mu & delta (Rattus norvegicus) (UniProt P33533+P33535); assay: Selectivity given as ratio of mu receptor to delta receptor; assay type: protein assay

CN(C(=O)Cc1ccccc1)[C@H]1CC[C@@]2(CCCO2)C[C@@H]1N1CCCC1
Ratio (Cavia porcellus): < 0.01 | Ratio [1]: < 1.5
